Values of other authors, collected in US9738710B2, “Method of treating a patient for pain by administering an anti-ion channel antibody” (UCB Biopharma SPRL, priority 2009, dated 2017).

Substance | immunogenicity (patients with anti-drug antibodies / incidence)
Abatacept: fusion of human CTLA-4 with IgG1 hinge-Fc | 3%
Eculizimumab: humanised anti-human C5 mAb comprising a hybrid constant region | 3%
